Patent US9278925B2, “Substituted 3-(biphenyl-3-yl)-4-hydroxy-8-methoxy-1-azaspiro[4.5]dec-3-en-2-one” (BAYER INTELLECTUAL PROPERTY GMBH, priority 2011, dated 2016)

System: human ACC1
Assay: Human ACC1 enzyme assay (ADP-Glo)
Type: biochemical
Conditions: pairwise, same dilution series; Preparation No. 2

Compound: CO[C@]1(C)CC[C@]2(CC1)NC(=O)C(c1cc(-c3ccc(Cl)cc3)ccc1C)=C2O [Example V.1-a, (5r,8r)-3-(4′-Chloro-4-methylbiphenyl-3-yl)-4-hydroxy-8-methoxy-8-methyl-1-azaspiro[4.5]dec-3-en-2-one]
- Ratio IC50s ACC2/ACC1 (respective measurement): 34
